According to paper PMC4525181, “Structural and dynamic insights into the energetics of activation loop rearrangement in FGFR1 kinase” (Nature Communications, 2015):
Values joined by “and” are separate entries in the source; they are usually repeats but may differ in a detail not shown here. Equal values may be shown once.

By UniProt entry, the sequences of proteins in these tests, tags left out. Residues count along the entry.
UniProt P11362, 458-765 C488A/C584S: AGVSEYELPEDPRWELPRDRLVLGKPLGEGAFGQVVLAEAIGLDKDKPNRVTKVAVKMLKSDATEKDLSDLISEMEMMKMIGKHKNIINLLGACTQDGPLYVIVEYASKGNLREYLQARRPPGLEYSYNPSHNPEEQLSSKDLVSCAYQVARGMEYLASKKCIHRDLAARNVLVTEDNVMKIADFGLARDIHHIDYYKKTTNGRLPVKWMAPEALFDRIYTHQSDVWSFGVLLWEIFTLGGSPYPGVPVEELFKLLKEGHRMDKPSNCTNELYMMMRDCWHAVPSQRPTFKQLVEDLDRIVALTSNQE

What was measured:
[1] = biological target: T1, FGFR1 kinase domain (Homo sapiens, UniProt P11362, C488A/C584S); assay: SPR kinetic analysis of inhibitors binding to FGFR1 kinase domain; conditions: 298 K, pH 7.4, read-out: KD (koff/kon)
T1 construct: Human FGFR1 consisting of residues Ala458-Glu765; made in house; host or cells: Escherichia coli, co-expressed with PTP1B

[2] = biological target: T1, FGFR1 kinase domain; assay: Isothermal titration calorimetry (ITC) of inhibitors binding to FGFR1; conditions: 298 K

SU5402
Kd [1]: 70.9 nM and 71 nM | Kd [2]: 76 nM and 76.1 nM
